# Results reported in patent US9718813B2, “Imidazolin-5-one derivative useful as FASN inhibitors for the treatment of cancer” (Janssen Pharmaceutica, NV, priority 2013, dated 2017).
# Sequences of proteins named here, by UniProt entry; tags and fusion partners are left off.
# UniProt P49327, whole entry: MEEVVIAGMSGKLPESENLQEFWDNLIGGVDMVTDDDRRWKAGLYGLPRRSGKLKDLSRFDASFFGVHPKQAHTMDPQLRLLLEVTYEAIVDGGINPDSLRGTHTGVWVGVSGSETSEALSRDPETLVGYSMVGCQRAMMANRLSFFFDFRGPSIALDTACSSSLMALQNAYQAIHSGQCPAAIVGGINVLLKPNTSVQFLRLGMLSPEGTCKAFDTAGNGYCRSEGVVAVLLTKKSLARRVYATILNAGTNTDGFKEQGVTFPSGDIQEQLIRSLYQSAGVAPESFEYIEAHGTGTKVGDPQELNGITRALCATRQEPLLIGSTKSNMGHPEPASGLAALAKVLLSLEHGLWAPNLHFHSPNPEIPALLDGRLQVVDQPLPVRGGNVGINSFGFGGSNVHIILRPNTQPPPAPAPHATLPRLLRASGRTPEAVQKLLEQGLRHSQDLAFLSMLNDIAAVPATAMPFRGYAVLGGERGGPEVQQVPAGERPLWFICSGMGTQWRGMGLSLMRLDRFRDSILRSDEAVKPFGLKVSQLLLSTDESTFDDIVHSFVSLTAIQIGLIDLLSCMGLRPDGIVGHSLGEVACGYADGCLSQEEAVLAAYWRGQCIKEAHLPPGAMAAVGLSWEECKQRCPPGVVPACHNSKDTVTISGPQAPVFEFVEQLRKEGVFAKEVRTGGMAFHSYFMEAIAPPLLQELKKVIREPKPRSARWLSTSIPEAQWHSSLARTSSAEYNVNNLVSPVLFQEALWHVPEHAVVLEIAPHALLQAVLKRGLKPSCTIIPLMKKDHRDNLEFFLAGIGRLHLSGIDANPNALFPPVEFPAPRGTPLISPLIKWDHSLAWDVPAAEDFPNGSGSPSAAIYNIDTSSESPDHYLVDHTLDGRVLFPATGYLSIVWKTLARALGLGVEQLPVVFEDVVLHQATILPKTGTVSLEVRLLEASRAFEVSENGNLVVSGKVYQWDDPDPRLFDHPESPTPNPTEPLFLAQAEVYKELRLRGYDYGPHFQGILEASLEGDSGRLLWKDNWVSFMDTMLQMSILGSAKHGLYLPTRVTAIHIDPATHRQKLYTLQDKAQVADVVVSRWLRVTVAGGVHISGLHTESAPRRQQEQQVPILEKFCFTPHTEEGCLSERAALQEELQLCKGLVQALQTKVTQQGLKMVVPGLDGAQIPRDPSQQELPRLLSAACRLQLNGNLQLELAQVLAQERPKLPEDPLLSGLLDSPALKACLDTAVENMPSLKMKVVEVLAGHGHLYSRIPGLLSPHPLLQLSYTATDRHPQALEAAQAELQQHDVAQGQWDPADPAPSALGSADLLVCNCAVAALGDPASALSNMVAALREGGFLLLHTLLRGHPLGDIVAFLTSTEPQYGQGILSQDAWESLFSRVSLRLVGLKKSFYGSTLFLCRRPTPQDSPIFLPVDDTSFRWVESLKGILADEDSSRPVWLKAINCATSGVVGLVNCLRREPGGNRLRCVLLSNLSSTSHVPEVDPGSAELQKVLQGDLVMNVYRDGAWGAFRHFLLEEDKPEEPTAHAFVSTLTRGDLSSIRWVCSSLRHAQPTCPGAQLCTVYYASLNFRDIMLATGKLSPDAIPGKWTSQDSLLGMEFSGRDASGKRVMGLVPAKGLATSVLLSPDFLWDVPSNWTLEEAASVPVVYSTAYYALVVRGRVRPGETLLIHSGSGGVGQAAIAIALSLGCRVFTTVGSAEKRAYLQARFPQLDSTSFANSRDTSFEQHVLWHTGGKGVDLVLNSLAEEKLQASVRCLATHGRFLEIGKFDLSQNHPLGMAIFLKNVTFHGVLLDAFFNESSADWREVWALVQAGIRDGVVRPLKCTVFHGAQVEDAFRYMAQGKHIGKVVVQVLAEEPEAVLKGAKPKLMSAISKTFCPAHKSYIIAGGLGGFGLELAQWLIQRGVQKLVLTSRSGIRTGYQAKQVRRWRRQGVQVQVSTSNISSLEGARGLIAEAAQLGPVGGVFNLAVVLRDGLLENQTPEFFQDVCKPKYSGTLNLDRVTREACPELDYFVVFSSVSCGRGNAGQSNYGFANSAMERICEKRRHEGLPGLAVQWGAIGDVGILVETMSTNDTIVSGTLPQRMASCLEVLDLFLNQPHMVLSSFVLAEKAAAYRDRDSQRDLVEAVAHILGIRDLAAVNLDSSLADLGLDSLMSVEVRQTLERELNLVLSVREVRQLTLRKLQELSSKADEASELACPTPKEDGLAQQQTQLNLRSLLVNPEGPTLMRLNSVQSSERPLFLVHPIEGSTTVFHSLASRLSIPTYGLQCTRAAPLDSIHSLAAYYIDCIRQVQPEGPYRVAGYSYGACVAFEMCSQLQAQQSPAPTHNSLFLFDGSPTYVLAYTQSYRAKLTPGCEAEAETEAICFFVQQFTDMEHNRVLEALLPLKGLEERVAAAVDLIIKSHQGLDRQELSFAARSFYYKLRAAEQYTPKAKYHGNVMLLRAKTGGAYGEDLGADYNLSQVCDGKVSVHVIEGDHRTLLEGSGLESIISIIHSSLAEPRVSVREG
# How the values were obtained:
# [1] = biological target: hFASN enzyme (full length) (Homo sapiens (Human), UniProt P49327); assay: Fatty Acid Synthase (FASN) Inhibition Scintillation Proximity Assay; assay type: biochemical; details: 3H-acetyl-CoA and malonyl-CoA substrates, SPA, mean if tested more than once
# Description: In this assay, inhibition of FASN activity is measured using ^3H-acetyl-CoA and malonyl-CoA as substrates. ^3H-Acetyl CoA is converted to ^3H-palmitate through a series of reactions by the FASN protein, which contains 7 functional domains and carries out 7 enzymatic reactions to ultimately produce ^3H-palmitate. The assay principle is based upon the fact that ^3H-acetyl-CoA is hydrophilic and the end product, ^3H-palmitate is hydrophobic.
# 10 μL assay buffer (100 mM KH2PO4 pH 7.5, 1 mM DTT) (20 μL in blanks) was added to a 384-well white Opti Plate plate (Perkin Elmer). 0.9 μL test compound (at concentrations of 30 μM, 10 μM, 3 μM, 1 μM, 0.30 μM, 0.10 μM, 0.03 μM and 0.01 μM)/DMSO and 10 μL hFASN enzyme (full length, 300 ng, purified in house) or 10 μL assay buffer was added to the wells. […] The reaction was stopped by adding 20 μL Streptavidin coupled imaging beads (25 mg/ml). After incubation for 30 minutes at room temperature in the dark, the 384 well plate was centrifuged at 1500 rpm for 3 minutes and was measured after at least 24 hrs by the LEADseeker™, measuring emission using a 610±20 nm pass filter.
# (§1) Raw data generated by the instrument were normalized to % Controlmin values, which were calculated as: % Controlmin=100*(x−mLC)/(mHC−mLC)
# where mLC and mHC were the means of the low control wells and high control wells on the plate, after manual exclusion of outliers. […]
# [2] = biological target: FASN Keto-reductase Domain (hFASN enzyme, full length) (Homo sapiens (Human), UniProt P49327); assay: Fatty Acid Synthase Keto-reductase Domain (FASN KR) Inhibition; assay type: biochemical; details: NADPH oxidation at 340 nm, ethyl acetoacetate substrate
# Description: After 20 minutes incubation at room temperature the plate was measured again (T2).
# The decrease in absorbance was calculated as (Absorbance before incubation T1)−(Absorbance following incubation T2).
# as §1
# where mLC and mHC were the means of the low control wells and high control wells on the plate, after manual exclusion of outliers. A plot of Controlmin versus test compound concentration was fitted to a 4-parameter logistic curve using a non-linear least squares regression method.
Compound,Human FASN pIC50 [1],FASN Keto-reductase Domain pIC50 [2]
"CC1(C)N=C(c2ccc(-c3cnc4ccccc4c3)cc2F)N(CC2CN(C(=O)C3CC3)C2)C1=O [Compound 20, 1-((1-(cyclopropanecarbonyl)azetidin-3-yl)methyl)-2-(2-fluoro-4-(quinolin-3-yl)phenyl)-4,4-dimethyl-1H-imidazol-5(4H)-one]",5.70,
"Cn1ncc2cc(-c3ccc(C4=NC(C)(C)C(=O)N4C[C@@H]4CCN(C(=O)C5CC5)C4)c(F)c3)ccc21 [Compound 53, (R)-1-((1-(cyclopropanecarbonyl)pyrrolidin-3-yl)methyl)-2-(2-fluoro-4-(1-methyl-1H-indazol-5-yl)phenyl)-4,4-dimethyl-1H-imidazol-5(4H)-one]",,6.49
"CC1(C)N=C(c2ccc(-c3nc4ccccc4[nH]3)cc2F)N(CC2CN(C(=O)C3CC3)C2)C1=O [Compound 60, 2-(4-(1H-benzo[d]imidazol-2-yl)-2-fluorophenyl)-1-((1-(cyclopropanecarbonyl)azetidin-3-yl)methyl)-4,4-dimethyl-1H-imidazol-5(4H)-one]",5.32,
